# Cyclic peptide permeability, from CycPeptMPDB

Data: CycPeptMPDB; original report Townsend et al. 2020, doi:10.26434/chemrxiv.13335941.v1.

PAMPA is the parallel artificial membrane permeability assay, which has no cells and reads passive diffusion. Permeability is in 10^-6 cm/s, converted from the database's log10 values; higher is more permeable.

structure (SMILES),PAMPA (10^-6 cm/s)
CC(C)C[C@@H]1NC(=O)[C@@H](CC(C)C)NC(=O)C[C@H](Cc2ccccc2)NC(=O)[C@H](Cc2ccccc2)NC(=O)CN(Cc2ccccc2)C(=O)[C@H]2CCCN2C1=O,1.8
CC(C)C[C@@H]1C(=O)N(Cc2ccccc2)CC(=O)N2CCC[C@H]2C(=O)N(Cc2ccccc2)CC(=O)N[C@@H](Cc2ccccc2)C(=O)N(C)[C@@H](C)C(=O)N1C,9.3
CCCN1CC(=O)N(C)[C@H](CC(C)C)C(=O)N(C)[C@@H](CC(C)C)C(=O)N2CCC[C@H]2C(=O)N(C)[C@@H](CC(C)C)C(=O)N[C@@H](Cc2ccccc2)C1=O,19
CC(C)C[C@@H]1NC(=O)[C@H]2CCCN2C(=O)C[C@H](Cc2ccccc2)NC(=O)[C@@H](CC(C)C)NC(=O)C[C@H](Cc2ccccc2)NC(=O)[C@H](Cc2ccccc2)NC1=O,9.8
CC(C)C[C@@H]1C(=O)N(C)[C@@H](CC(C)C)C(=O)N2CCC[C@H]2C(=O)N[C@H](CC(C)C)C(=O)N[C@@H](Cc2ccccc2)C(=O)N(C)[C@H](C)C(=O)N1C,2
CC(C)C[C@@H]1NC(=O)[C@H]2CCCN2C(=O)[C@H](CC(C)C)NC(=O)[C@H](CC(C)C)N(C)C(=O)[C@@H](C)NC(=O)[C@H](Cc2ccccc2)NC1=O,1
CCCN1CC(=O)N(C)[C@@H](CC(C)C)C(=O)N[C@H](CC(C)C)C(=O)N2CCC[C@H]2C(=O)N[C@H](CC(C)C)C(=O)N[C@@H](Cc2ccccc2)C(=O)N2CCC[C@H]2C1=O,1.3
CC(C)C[C@@H]1NC(=O)[C@H]2CCCN2C(=O)[C@H](CC(C)C)NC(=O)[C@@H](CC(C)C)NC(=O)[C@@H](C)N(C)C(=O)[C@H](Cc2ccccc2)NC1=O,0.76
CC(C)C[C@H]1C(=O)N[C@@H](Cc2ccccc2)C(=O)N2CCC[C@@H]2C(=O)N[C@H](C)C(=O)N(C)[C@@H](CC(C)C)C(=O)N(C)[C@@H](CC(C)C)C(=O)N2CCC[C@@H]2C(=O)N1C,4.6
CC(C)C[C@@H]1NC(=O)C[C@H](Cc2ccccc2)NC(=O)[C@H]2CCCN2C(=O)[C@H](Cc2ccccc2)NC(=O)[C@@H](CC(C)C)NC(=O)[C@@H]2CCCN2C(=O)C[C@H](Cc2ccccc2)NC1=O,1.3
CC(C)C[C@H]1C(=O)N[C@@H](Cc2ccccc2)CC(=O)N2CCC[C@@H]2C(=O)N(C)[C@@H](CC(C)C)C(=O)N[C@@H](Cc2ccccc2)C(=O)N2CCC[C@H]2C(=O)N(C)[C@H](C)C(=O)N1C,4.9
CC(C)C[C@@H]1NC(=O)[C@@H]2CCCN2C(=O)CN(Cc2ccccc2)C(=O)[C@H](CC(C)C)N(C)C(=O)[C@@H](C)NC(=O)[C@H](Cc2ccccc2)NC1=O,1
CC(C)C[C@@H]1NC(=O)C[C@H](Cc2ccccc2)NC(=O)[C@H](Cc2ccccc2)NC(=O)CN(Cc2ccccc2)C(=O)[C@@H]2CCCN2C(=O)[C@@H](CC(C)C)NC1=O,2.7
CC(C)C[C@@H]1NC(=O)[C@@H](CC(C)C)N(C)C(=O)C[C@H](Cc2ccccc2)NC(=O)[C@H](Cc2ccccc2)NC(=O)CN(Cc2ccccc2)C(=O)[C@H]2CCCN2C1=O,2.8
CC(C)C[C@@H]1NC(=O)C[C@H](Cc2ccccc2)NC(=O)[C@H]2CCCN2C(=O)[C@H](Cc2ccccc2)NC(=O)CN(Cc2ccccc2)C(=O)[C@H]2CCCN2C(=O)[C@H](CC(C)C)N(C)C1=O,1.2
CC(C)C[C@@H]1C(=O)N[C@@H](Cc2ccccc2)C(=O)N(C)[C@@H](C)C(=O)N(C)[C@@H](CC(C)C)C(=O)N[C@@H](Cc2ccccc2)CC(=O)N2CCC[C@H]2C(=O)N1C,13
CC(C)C[C@@H]1NC(=O)C[C@H](Cc2ccccc2)NC(=O)[C@H]2CCCN2C(=O)[C@H](Cc2ccccc2)NC(=O)[C@H](CC(C)C)NC(=O)[C@@H]2CCCN2C(=O)[C@@H](CC(C)C)NC1=O,2.4

The 2 highest values of PAMPA among the entries above:

structure (SMILES),PAMPA (10^-6 cm/s)
CCCN1CC(=O)N(C)[C@H](CC(C)C)C(=O)N(C)[C@@H](CC(C)C)C(=O)N2CCC[C@H]2C(=O)N(C)[C@@H](CC(C)C)C(=O)N[C@@H](Cc2ccccc2)C1=O,19
CC(C)C[C@@H]1C(=O)N[C@@H](Cc2ccccc2)C(=O)N(C)[C@@H](C)C(=O)N(C)[C@@H](CC(C)C)C(=O)N[C@@H](Cc2ccccc2)CC(=O)N2CCC[C@H]2C(=O)N1C,13

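Conditions beyond the assay type are not listed; see the original paper. The list need not hold all peptides of the study. Entries at the database's floor value (log10 P of -10) are not listed.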